We go through one molecule from ChEMBL document CHEMBL1155439, “Transient receptor potential ankyrin 1 (TRPA1) channel as emerging target for novel analgesics and anti-inflammatory agents” (J Med Chem, 2010).

Sequences of proteins named here, by UniProt entry; tags and fusion partners are left off.
UniProt O75762, whole entry: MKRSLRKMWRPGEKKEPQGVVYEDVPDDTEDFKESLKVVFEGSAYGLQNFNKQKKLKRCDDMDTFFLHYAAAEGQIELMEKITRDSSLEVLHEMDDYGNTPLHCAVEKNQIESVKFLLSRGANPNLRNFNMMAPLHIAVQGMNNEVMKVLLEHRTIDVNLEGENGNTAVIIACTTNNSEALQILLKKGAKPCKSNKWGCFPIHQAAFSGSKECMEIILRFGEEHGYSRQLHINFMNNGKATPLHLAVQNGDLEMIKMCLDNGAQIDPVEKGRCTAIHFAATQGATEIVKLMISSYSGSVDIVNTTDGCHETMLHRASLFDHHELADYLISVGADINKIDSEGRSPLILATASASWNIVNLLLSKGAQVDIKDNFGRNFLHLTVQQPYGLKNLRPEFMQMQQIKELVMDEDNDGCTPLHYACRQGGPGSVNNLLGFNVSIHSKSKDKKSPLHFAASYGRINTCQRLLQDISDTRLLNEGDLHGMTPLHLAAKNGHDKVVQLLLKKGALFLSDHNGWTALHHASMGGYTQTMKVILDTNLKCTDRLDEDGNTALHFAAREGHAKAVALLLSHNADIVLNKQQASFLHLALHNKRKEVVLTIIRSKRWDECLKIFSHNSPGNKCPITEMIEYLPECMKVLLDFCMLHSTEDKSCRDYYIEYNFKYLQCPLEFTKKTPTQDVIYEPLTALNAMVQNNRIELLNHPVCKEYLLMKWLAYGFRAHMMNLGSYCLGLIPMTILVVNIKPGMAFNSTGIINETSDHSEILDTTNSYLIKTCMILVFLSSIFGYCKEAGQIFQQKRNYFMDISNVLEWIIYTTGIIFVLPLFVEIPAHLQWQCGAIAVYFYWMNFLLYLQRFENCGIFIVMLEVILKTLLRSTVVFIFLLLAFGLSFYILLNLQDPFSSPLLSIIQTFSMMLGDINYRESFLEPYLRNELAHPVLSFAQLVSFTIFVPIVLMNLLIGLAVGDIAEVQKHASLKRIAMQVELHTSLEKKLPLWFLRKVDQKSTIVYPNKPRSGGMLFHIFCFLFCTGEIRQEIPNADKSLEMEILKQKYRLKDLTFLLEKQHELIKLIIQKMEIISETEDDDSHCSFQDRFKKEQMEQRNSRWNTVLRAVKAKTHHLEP

The assay deals with Transient receptor potential cation channel subfamily A member 1 (Homo sapiens, UniProt O75762). As to the kind of experiment: Antagonist activity at human TRPA1 channel assessed as inhibition of noxious cold-induced receptor activation.

Consider `O=C(NC(Sc1ccc(Cl)cc1)C(Cl)(Cl)Cl)c1ccccc1` (stereo unspecified), for which the concentration for half-maximal inhibition (IC50) – broadly, the concentration needed to halve the response being measured – is 7 nM.
